System: myelinated axons in neuronal cell cultures differentiated from ES-D3 cells
Settings: up to two weeks of growth in normal culture medium after demyelination by hexachlorophene
From the text: Monitoring of metabolic activity (CellTiter 96® AQueous One; Promega) is used to identify concentrations that caused a minimum amount of damage to the oligodendrocytes and neurons. In this assay a tetrazolium compound (MTS) and an electron coupling reagent (phenazine ethosulfate) are used for calorimetric detection of metabolic activity. MTS is bioreduced, presumably by NADPH or NADH, into a colored formazan product that is soluble in tissue culture medium and can be detected spectrophotometrically. Absorbance at about […] is proportional to metabolic activity and is commonly used to monitor the number of living cells in culture.

`Oc1c(Cl)cc(Cl)c(Cl)c1Cc1c(O)c(Cl)cc(Cl)c1Cl` [hexachlorophene] was tested. Which “spontaneous remyelination (transmission electron microscopy)” value did it give?
Its value is “No significant spontaneous remyelination was observed”.

Source: patent US20100069254A1, “Cell Culture Model for Demyelination/Remyelination” (priority 2008, published 2010)
